From US8158621B2

Tested on: Human Jurkat T-cells (clone N)
Assay: Jurkat T-cell activation (anti-TCR, CD69 upregulation)
Type: cell-based
Details: read-out: Jurkat CD69 IC50

CNC(=O)COc1cccc(Nc2ncc(F)c(Nc3ccc4c(c3)NC(=O)C(C)O4)n2)c1 (stereo not shown)
IC50: 348 nM
